For the assay, the system named is Walker 256 tumor cells. Kind of assay: Growth inhibition of tumor cells (cell number per ml). The class given is cell-based. Conditions: Walker 256 tumor cells incubated with conjugate, HSA as control; cell number per ml after 24 hours and 48 hours. Here is the method: Each of the conjugates celliton blue-DTPA-HSA and novantron-DTPA-HSA as well as HSA as control were incubated with Walker 256 tumor cells under conventional conditions. The cell number per ml was determined as usual after 24 hours and 48 hours, respectively.
Example 4 was carried out like Example 3, acid black-DTPA being administered as a conjugate.

For the substance “celliton blue-DTPA-HSA: Celliton blue (1,4,5,8-tetraaminoantraquinone) reacted with DTPA anhydride, then linked to HSA”, the “growth inhibition of tumor cells” value was “growth inhibition”.

Consider “novantron-DTPA-HSA: Mitoxantrone (novantron) reacted with DTPA anhydride, then linked to human serum albumin (HSA)”, for which the “growth inhibition of tumor cells” value was “growth inhibition”.

For the origin of these results see patent US6410695B1, “Individual medicament dosing conjugate” (Deutsches Krebsforschungszentrum Stiftung Des Öffentlichen …, priority 1995, dated 2002).
